Sequences of proteins named here, by UniProt entry; tags and fusion partners are left off.
UniProt P10275, whole entry T878A: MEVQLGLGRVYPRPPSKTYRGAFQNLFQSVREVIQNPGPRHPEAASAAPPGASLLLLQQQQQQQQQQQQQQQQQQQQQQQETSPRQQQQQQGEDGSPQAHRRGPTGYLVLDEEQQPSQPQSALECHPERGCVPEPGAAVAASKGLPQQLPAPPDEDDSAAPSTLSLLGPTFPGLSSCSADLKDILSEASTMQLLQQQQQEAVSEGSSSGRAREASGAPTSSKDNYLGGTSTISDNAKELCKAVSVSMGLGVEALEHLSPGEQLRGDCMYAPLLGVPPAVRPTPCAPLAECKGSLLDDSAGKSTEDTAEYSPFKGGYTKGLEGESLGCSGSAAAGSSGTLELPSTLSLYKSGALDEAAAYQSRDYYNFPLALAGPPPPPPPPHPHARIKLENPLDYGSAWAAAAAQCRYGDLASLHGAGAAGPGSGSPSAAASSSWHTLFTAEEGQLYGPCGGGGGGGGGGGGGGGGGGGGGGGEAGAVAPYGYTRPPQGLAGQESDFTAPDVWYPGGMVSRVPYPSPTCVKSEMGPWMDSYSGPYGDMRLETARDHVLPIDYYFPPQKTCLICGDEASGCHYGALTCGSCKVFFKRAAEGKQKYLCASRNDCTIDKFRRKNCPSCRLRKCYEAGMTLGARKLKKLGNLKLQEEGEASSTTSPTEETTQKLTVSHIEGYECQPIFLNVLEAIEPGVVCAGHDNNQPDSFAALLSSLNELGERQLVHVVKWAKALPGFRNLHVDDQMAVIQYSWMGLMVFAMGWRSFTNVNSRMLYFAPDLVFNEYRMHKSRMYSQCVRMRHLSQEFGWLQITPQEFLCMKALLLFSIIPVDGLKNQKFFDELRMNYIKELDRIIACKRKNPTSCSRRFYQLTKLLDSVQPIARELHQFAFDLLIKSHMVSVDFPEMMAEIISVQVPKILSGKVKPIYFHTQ
UniProt Q96SW2, whole entry partner: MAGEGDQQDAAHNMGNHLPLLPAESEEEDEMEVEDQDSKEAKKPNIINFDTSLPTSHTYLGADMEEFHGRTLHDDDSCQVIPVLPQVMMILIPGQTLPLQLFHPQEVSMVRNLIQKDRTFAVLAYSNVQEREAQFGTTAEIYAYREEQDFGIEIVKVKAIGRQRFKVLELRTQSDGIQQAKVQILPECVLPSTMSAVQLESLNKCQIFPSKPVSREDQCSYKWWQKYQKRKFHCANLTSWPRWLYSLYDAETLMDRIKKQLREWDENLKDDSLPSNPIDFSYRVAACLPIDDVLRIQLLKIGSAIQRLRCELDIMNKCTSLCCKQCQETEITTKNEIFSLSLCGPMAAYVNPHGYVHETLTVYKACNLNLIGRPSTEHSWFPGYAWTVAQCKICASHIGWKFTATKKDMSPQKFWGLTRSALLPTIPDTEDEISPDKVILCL

In patent US20250197409A1:

Target: androgen receptor (Homo sapiens, UniProt P10275, T878A)
Assay: Androgen receptor degradation assay using Western blot analysis
Format: cell-based
Settings: LNCaP.FGC cells; for Androgen Receptor Remaining (%): 100 nM, 24 hr, normalized to GAPDH, untreated cells = 100%; for DC50: read-out: AR DC50 (concentration needed for 50% AR degradation), serial 10x dilutions from 100 nM

| SMILES | Androgen Receptor Remaining (%) | DC50 [nM] |
| --- | --- | --- |
| CCn1c2c(c3ccc(OCCCN4CCCN(c5ccc(C(=O)N[C@H]6CC[C@H](N(C)c7ccc(C#N)c(Cl)c7)CC6)nn5)CC4)cc31)C(=O)N(C1CCC(=O)NC1=O)C2=O (stereo partly drawn) | 29 | 10 to 25 |
| CCn1c2c(c3ccc(OCCCCN4CCC5(CC4)CN(c4ccc(C(=O)N[C@H]6CC[C@H](N(C)c7ccc(C#N)c(Cl)c7)CC6)nn4)C5)cc31)C(=O)N(C1CCC(=O)NC1=O)C2=O (stereo partly drawn) | 39 | < 10 |
| CCn1c2c(c3ccc(OCCCOC4CC5(CCN(c6ccc(C(=O)N[C@H]7CC[C@H](N(C)c8ccc(C#N)c(Cl)c8)CC7)nn6)CC5)C4)cc31)C(=O)N(C1CCC(=O)NC1=O)C2=O (stereo partly drawn) |  | 25 to 100 |
| CCn1c2c(c3ccc(OCCCCN4CCN(c5ccc(C(=O)N[C@H]6CC[C@H](Oc7ccc(C#N)c(Cl)c7)CC6)nn5)[C@H](C)C4)cc31)C(=O)N(C1CCC(=O)NC1=O)C2=O (stereo partly drawn) | 40 | 25 to 100 |
| CCn1c2c(c3ccc(OCCCCOC4CCN(c5ccc(C(=O)N[C@H]6CC[C@H](N(C)c7ccc(C#N)c(Cl)c7)CC6)nn5)CC4)cc31)C(=O)N(C1CCC(=O)NC1=O)C2=O (stereo partly drawn) |  | 25 to 100 |
| Cn1c2c(c3ccc(OC4CCN(CC5CCN(c6ccc(C(=O)N[C@H]7CC[C@H](Oc8ccc(C#N)c(Cl)c8)CC7)nn6)C5)CC4)cc31)C(=O)N(C1CCC(=O)NC1=O)C2=O (stereo partly drawn) |  | 10 to 25 |
